# Data published in PubChem BioAssay AID624354 (Sanford-Burnham Center for Chemical Genomics, 2012).
# Only a part is listed here, and it is no random draw. Active and inactive are the calls of the source.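 The calls were made as follows: active = compounds causing at least 50% loss of cell viability in the single-dose screen, relative to plate controls; inactive = the rest.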
# Test: viability loss with TRAIL in NB7+C8 cells, primary screen, TRAIL sensitizer project, cell-based, ATPlite luminescence (AID 624354)
# Conditions: at 10 µM, hits give high values
row,Structure (SMILES),"inhibition (viability loss, TRAIL sensitization)"
1,CS(=O)(=O)c1cc([N+](=O)[O-])c2no[n+]([O-])c2c1,inactive: 12.5%
2,CCOP1(=S)c2c(C)nn(CCC#N)c2N=C(c2ccccc2F)N1C (centres undefined),inactive: -14.9%
3,O=P(Nc1nccs1)(c1ccccc1)c1nc2ccccc2s1 (centres undefined),inactive: 12.6%
4,O=P(Nc1nccs1)(Oc1ccccc1)Oc1ccccc1,inactive: -1.68%
5,O=C(O)COc1ccc([As](=O)(O)O)cc1[N+](=O)[O-],inactive: -10.9%
6,Nc1ccccc1[As](=O)(O)c1ccccc1,inactive: 4.16%
7,NC(=O)Nc1ccc([As](=O)(O)O)cc1,inactive: -0.695%
8,CN(C)C(=O)c1cc([N+](=O)[O-])cc2c1-c1c(cc([N+](=O)[O-])cc1[N+](=O)[O-])C2=O,inactive: 49.8%
9,O=[N+]([O-])c1ccc2c(c1)nnn2O,inactive: -0.262%
10,CN(C(=O)Cc1ccc(Cl)c(Cl)c1)[C@H]1CC[C@@]2(CCCO2)C[C@@H]1N1CCCC1,inactive: 1.49%
11,N#CCCN(C(=O)COC(=O)C(O)(c1ccccc1)c1ccccc1)c1ccc(F)cc1,inactive: 1.64%
12,CCOP1(=S)c2c(C)nn(CCC#N)c2N=C(c2ccc(F)cc2)N1C (centres undefined),inactive: 8.14%
13,CN(C(=O)Cc1ccccc1)[C@@H]1CC[C@]2(CCCO2)C[C@H]1N1CCCC1,inactive: -8.38%
14,COc1cc(C(=O)NCC2(N3CCOCC3)CCCCC2)cc(Cl)c1OC(C)C,inactive: -1.2%
15,O=[As](O)(O)c1cccnc1,inactive: 4.31%
16,CS(=O)(=O)c1ccc(Cl)c(NC(=O)COC(=O)C(O)(c2ccccc2)c2ccccc2)c1,inactive: -1.34%
17,O=C(OC1CN2CCC1CC2)c1ccc(Cl)cc1 (centres undefined),inactive: 0.264%
18,O=[As](O)(c1cccc(O)c1)c1cccc(O)c1,inactive: -18%
19,Cc1cccc(OCC(=O)OC2CN3CCC2CC3)c1 (centres undefined),inactive: -4.78%
20,CCCOP(=S)(Nc1nc(N)cc(=O)[nH]1)OCCC,inactive: 10.3%
21,Nc1cccc2c([As](=O)(O)O)cccc12,inactive: -24.6%
22,Cc1ccc(NCCc2c([N+](=O)[O-])cc([N+](=O)[O-])cc2[N+](=O)[O-])cc1,inactive: 18.6%
23,COc1cc(C2NCCC3(OCCO3)C2(C)C)cc(OC)c1OC (centres undefined),inactive: -3.18%
24,CCOP(=O)(Nc1cccc2ccccc12)OCC,inactive: -4.33%
25,CN(CCCl)Cc1cc(Cl)c(NC2=NCCN2)c(Cl)c1,inactive: -9.29%

row,Structure (SMILES),"inhibition (viability loss, TRAIL sensitization)"
1,CCOP(=O)(Nc1ccc(C)cn1)OCC,inactive: -12.1%
2,CCC1=CC2Cc3nc4ccc(Cl)cc4c(N)c3C(C1)C2 (centres undefined),inactive: 11%
3,O=P1(Nc2ccccn2)COc2ccccc2OC1,inactive: -27.4%
4,CCOP(=O)(NC(=NC(C)c1ccccc1)NC(C)c1ccccc1)OCC (centres undefined),inactive: 7.14%
5,Clc1n[nH]nc1-c1nn[nH][15n]1,inactive: -3.68%
6,O=P1(N(CCCl)CCCl)NCCC(C(F)(F)F)O1 (centres undefined),inactive: -15.1%
7,CC(C)(C)C(=O)NC(Sc1ncccn1)C(Cl)(Cl)Cl (centres undefined),inactive: 4.99%
8,COc1ccccc1CNC(=O)COC(=O)C(O)(c1ccccc1)c1ccccc1,inactive: 4.91%
9,CC1(CBr)Cn2c(nc3ccccc3c2=O)S1 (centres undefined),inactive: 0.677%
10,CN(C(=O)Cc1ccc(Cl)c(Cl)c1)[C@@H]1CCCC[C@H]1N1CCCC1,inactive: 3.8%
11,CC(C)/C=N\N=C(\N)N[N+](=O)[O-],inactive: -9.1%
12,Cc1nn(-c2ccccc2)c2c1P(=O)(N1CCOCC1)N(C)C(c1ccccc1)=N2 (centres undefined),inactive: -2.93%
13,Cc1ccc(C(=O)OC2CN3CCC2CC3)cc1 (centres undefined),inactive: 6.35%
14,CC1CCC(C(C)C)C(OP(=O)(Nc2ccccn2)c2ccccc2)C1 (centres undefined),inactive: 5.8%
15,O=C(/C=C/c1ccccc1)OC1CN2CCC1CC2 (centres undefined),inactive: 33%
16,CCCC1OP(=O)(Nc2ccccc2)OCC1CC (centres undefined),inactive: -10.1%
17,CN(C)C1(CNC(=O)c2ccc(S(C)(=O)=O)cc2)CCCCC1,inactive: 1.46%
18,O=P1(Nc2ncccn2)COc2ccccc2OC1,inactive: -6.56%
19,Cc1ccc(S(=O)(=O)N(CCCN)CCCc2c(C)nc(N)[nH]c2=O)cc1,inactive: -1.23%
20,NS(=O)(=O)c1cccc(NC(=O)COC(=O)C(O)(c2ccccc2)c2ccccc2)c1,inactive: 12.4%
21,O=P1(Nc2ccc(Br)cn2)COc2ccccc2OC1,inactive: -7.97%
22,O=[As](O)(c1cccs1)c1cccs1,inactive: -7.39%
23,Cc1ccc(OCC(=O)OC2CN3CCC2CC3)cc1 (centres undefined),inactive: -9.71%
24,Nc1cccc([As](=O)(O)c2ccccc2)c1,inactive: 0.173%
